Legend:
hABHD6 = hABHD6 (Homo sapiens, UniProt Q9BV23)
hFAAH = hFAAH (Homo sapiens, UniProt O00519); experiment: fluorometric inhibition assay (data not presented)
[1] = target: hMGL (monoacylglycerol lipase) (Homo sapiens, UniProt Q99685); experiment: fluorometric inhibition assay (data not presented)

Amino acid sequences for entries named in this document (tags omitted).
UniProt Q9BV23, whole entry: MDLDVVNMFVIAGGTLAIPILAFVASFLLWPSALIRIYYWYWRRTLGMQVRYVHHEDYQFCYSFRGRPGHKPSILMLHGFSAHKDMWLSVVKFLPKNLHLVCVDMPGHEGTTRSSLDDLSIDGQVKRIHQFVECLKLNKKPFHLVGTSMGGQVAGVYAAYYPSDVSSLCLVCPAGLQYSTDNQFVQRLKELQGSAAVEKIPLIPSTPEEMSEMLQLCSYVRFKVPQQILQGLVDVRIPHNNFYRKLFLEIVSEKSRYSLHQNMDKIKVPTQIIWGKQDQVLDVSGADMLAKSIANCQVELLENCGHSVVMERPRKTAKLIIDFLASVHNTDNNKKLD
UniProt O00519, whole entry: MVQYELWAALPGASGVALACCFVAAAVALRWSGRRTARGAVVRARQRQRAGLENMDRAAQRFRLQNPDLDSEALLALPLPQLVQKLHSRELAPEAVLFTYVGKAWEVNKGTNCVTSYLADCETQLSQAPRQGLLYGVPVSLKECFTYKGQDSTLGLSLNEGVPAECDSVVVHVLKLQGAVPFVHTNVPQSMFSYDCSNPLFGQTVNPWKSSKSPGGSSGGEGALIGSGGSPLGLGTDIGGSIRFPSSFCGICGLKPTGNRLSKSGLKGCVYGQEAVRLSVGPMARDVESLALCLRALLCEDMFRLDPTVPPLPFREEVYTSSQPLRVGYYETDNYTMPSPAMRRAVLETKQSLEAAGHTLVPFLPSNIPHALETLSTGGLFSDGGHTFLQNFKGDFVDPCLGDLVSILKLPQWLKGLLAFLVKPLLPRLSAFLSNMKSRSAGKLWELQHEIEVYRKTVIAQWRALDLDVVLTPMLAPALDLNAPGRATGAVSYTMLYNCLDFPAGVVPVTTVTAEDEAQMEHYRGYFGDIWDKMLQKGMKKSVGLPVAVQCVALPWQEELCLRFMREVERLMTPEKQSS
UniProt Q99685, whole entry: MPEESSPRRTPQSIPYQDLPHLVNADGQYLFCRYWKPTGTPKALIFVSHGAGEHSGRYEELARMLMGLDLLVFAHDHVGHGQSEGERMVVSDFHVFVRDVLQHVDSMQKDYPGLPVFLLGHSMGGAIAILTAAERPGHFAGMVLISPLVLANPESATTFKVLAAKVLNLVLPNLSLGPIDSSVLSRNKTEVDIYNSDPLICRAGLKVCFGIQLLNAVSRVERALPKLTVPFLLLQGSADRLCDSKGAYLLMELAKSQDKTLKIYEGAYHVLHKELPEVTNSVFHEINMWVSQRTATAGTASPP

Q: FP-rhodamine was tested. Which IC50 (hABHD6) did it give?
A: 3 µM

Q: What about the IC50 (hFAAH) of the same substance?
A: 0.16 µM

Q: What about the IC50 [1] of the same substance?
A: 0.28 µM

Source: paper PMC6351631, “Biochemical and Proteomic Characterization of Recombinant Human α/β Hydrolase Domain 6” (Scientific Reports, 2019)
